One assay concerns the target CMY-37 (Citrobacter freundii, UniProt P05193). As to conditions: read-out: IC50 β-lactamase CMY-37.
In a further assay the target is AmpC (PAE) (Pseudomonas aeruginosa, UniProt P24735). As to conditions: read-out: IC50 β-lactamase AmpC (PAE); class (C); nitrocefin 200 μM, 30-min pre-incubation, enzyme 0.4 nM.
The target in a further assay is AmpC (P99) (Enterobacter cloacae, UniProt P05364). The settings on record: read-out: IC50 β-lactamase AmpC (P99); class (C); nitrocefin 200 μM, 30-min pre-incubation, enzyme 0.2 nM.
[1] abbreviates: class (C), nitrocefin 200 μM, 30-min pre-incubation, enzyme 0.2 nM.

Protein sequences, listed by entry. Tags and fused reporters are not part of them. Residues count along the entry.
UniProt P05193, 21-381 limits assumed: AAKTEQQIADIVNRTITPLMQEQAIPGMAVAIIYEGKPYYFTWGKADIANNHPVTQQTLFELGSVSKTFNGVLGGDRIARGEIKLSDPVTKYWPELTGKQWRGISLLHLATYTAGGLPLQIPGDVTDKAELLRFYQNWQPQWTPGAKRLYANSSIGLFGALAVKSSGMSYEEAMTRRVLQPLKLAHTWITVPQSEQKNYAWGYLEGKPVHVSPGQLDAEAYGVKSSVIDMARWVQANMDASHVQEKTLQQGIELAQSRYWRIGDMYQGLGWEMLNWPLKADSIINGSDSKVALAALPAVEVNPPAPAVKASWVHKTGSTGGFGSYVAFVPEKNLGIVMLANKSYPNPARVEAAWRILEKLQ
UniProt P24735, 27-397: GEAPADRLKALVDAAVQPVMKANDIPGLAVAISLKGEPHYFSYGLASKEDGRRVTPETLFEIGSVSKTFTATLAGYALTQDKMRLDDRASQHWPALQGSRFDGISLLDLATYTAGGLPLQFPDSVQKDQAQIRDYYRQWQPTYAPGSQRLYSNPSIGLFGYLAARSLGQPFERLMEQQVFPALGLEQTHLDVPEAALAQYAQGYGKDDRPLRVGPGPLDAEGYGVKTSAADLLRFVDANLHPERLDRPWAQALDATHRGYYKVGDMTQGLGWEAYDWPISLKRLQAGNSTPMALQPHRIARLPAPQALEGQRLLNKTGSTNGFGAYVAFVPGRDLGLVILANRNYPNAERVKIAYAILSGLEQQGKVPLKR
UniProt P05364, 21-381: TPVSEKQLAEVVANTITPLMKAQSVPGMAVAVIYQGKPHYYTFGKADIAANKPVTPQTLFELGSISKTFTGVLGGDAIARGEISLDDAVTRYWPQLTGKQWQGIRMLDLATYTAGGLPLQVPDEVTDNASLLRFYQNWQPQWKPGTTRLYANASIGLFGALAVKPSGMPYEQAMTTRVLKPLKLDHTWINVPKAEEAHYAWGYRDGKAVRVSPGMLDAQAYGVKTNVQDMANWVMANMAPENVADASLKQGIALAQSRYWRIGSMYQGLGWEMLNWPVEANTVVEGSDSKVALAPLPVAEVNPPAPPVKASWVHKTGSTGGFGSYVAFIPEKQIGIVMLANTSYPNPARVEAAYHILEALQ

Like-named read-outs stand apart in the source and are kept apart here.

Six compounds from US10722520B2, “Heterocyclic compounds and their use in preventing or treating bacterial infections” (MUTABILIS, priority 2016, dated 2020) can be followed below.

By IC50 is commonly meant the concentration at which inhibition is half-maximal. Turning to “sodium (7-oxo-3-(3-(methoxycarbamoyl)-pyrazol-1-yl)-1,6-diazabicyclo[3.2.1]oct-3-en-6-yl) sulfate and sodium (7-oxo-3-(5-(methoxycarbamoyl)-pyrazol-1-yl)-1,6-diazabicyclo[3.2.1]oct-3-en-6-yl) sulfate [Example 27]”, the values for the IC50 at CMY-37 (setting [1]), at AmpC (PAE) and on AmpC (P99) were 28 nM, 350 nM and 33 nM, respectively.
As to “sodium [3-[3-[2-[tert-butyl(dimethyl)silyl]oxyethyl]pyrazol-1-yl]-7-oxo-1,6-diazabicyclo[3.2.1]oct-3-en-6-yl]sulfate [Example 69]”, the figures for the 50% inhibitory concentration (IC50) on CMY-37 (setting [1]), at AmpC (PAE) and at AmpC (P99) were 14 nM, 57 nM and 18 nM, respectively.
`O=C1N2CC(n3ccc([C@H](O)CO)n3)=CC(C2)N1OS(=O)(=O)[O-].[Na+]` (stereo partly drawn) [Example 76, sodium [3-[3-[(1S)-1,2-dihydroxyethyl]pyrazol-1-yl]-7-oxo-1,6-diazabicyclo[3.2.1]oct-3-en-6-yl]sulfate]: at CMY-37, the IC50 was 28 nM.
Same read-out and setting: in the case of `O=C(c1ccn(C2=CC3CN(C2)C(=O)N3OS(=O)(=O)[O-])n1)N1CCOCC1.[Na+]` (stereo not shown) [Example 31, sodium (7-oxo-3-[3-(morpholine-4-carbonyl)pyrazol-1-yl]-1,6-diazabicyclo[3.2.1]oct-3-en-6-yl) sulfate] it was 28 nM.
`O=C1N2CC(n3ccc(CO)n3)=CC(C2)N1OS(=O)(=O)O` (stereo not shown) [Example 12, triethylammonium [3-[3-(hydroxymethyl)pyrazol-1-yl]-7-oxo-1,6-diazabicyclo[3.2.1]oct-3-en-6-yl]sulfate]: the concentration for half-maximal inhibition (IC50) on CMY-37 (setting [1]) is 14 nM.
Regarding `O=C(Nc1cc[nH]n1)c1ccn(C2=CC3CN(C2)C(=O)N3OS(=O)(=O)[O-])n1.[Na+]` (stereo not shown) [Example 85, sodium [7-oxo-3-[3-(pyrazol-3-ylcarbamoyl)pyrazol-1-yl]-1,6-diazabicyclo[3.2.1]oct-3-en-6-yl]sulfate], the IC50 on CMY-37 is 14 nM.
